The source of these data is patent US5925769A, “Acetylenic 1,5-diarylpyrazoles as antiinflammatory agents” (Ortho Pharmaceutical, Corp., priority 1998, dated 1999).

This assay addresses T1, 5-LO (Rattus norvegicus, UniProt P12527).
T1 construct: the supernatant was saved as the source of enzymes; endogenous in cells; host or cells: RBL-1 (rat basophilic leukemia) cells
T1 sequence (P12527 1-673): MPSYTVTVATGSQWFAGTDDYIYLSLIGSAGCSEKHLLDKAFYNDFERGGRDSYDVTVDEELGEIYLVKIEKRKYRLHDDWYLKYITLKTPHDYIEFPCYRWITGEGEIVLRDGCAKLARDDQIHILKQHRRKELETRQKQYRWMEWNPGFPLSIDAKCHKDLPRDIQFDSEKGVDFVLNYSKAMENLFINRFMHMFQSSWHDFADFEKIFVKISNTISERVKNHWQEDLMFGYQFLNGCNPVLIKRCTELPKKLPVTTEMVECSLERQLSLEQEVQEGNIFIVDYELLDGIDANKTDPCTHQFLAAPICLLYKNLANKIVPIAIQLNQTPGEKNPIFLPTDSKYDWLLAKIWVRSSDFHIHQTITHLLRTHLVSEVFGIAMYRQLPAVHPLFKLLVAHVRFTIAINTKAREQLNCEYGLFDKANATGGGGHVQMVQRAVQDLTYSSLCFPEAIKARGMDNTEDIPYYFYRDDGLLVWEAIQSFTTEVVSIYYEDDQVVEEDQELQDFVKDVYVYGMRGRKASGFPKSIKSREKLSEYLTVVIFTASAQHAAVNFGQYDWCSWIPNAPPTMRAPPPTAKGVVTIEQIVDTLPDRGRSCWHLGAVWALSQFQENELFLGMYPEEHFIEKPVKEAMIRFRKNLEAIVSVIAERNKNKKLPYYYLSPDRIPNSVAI
Kind of assay: Procedure III: 5-LO (5-HETE) in intact RBL-1 cells. Format: cell-based. The note with it: calcium ionophore A 23187, read-out: Proc. III 5-LO IC50. As for the experimental part: The IC50 was determined using a curve fit in Cricket Graph (Computer Associated), which provided the equation of the regressed line used in the calculation.
In Procedure III, the ability to inhibit 5-LO and CO in intact RBL-1 cells was also evaluated. […] Cells were collected by centrifugation, washed once in HBSS, and resuspended at a concentration of 1×10^5 cells/mL. Cells were incubated in the presence of vehicle or drug then centrifuged at 800×g for 10 minutes at 4° C. The supernatant was removed by aspiration and the cells were resuspended in 0.5 mL of HBSS. […] The conversion of AA to 5-LO products was initiated by the addition of 10 μL (50 μCi) of 1-^14 C-AA. Products were isolated by acidification and extraction, followed by thin layer chromatography analysis as described above. Radioactive areas corresponding to authentic 5-LO (5-HETE) and CO (PgD2) products were quantitated by the Bioscan 2000 Imaging System and the IC50 was calculated as above.

For the molecule `COc1ccc(-n2nc(C#CC(C)N(O)C(=O)c3ccco3)cc2-c2ccc(C)cc2)cc1` (stereo not shown) [Cpd 25, N-(furan-2-carbonyl)-N-(1-(1-(4-methoxyphenyl)-5-(4-methylphenyl)pyrazol-3-yl)-1-butyn-3-yl)hydroxylamine], the IC50 was 2.9 µM.

By IC50 is commonly meant the concentration at which inhibition is half-maximal.
